# Results taken from publication PMC3166367.
# Legend:
# [1] = target: dimeric (β15-66)2 fragment of fibrin β chain (full-length βN-domain, dimeric); assay: ELISA
# [2] = target: VE-cad(3) fragment (residues Phe210-Phe325), third domain of the extracellular portion of VE-cadherin; assay: SPR
Kd [1] [nM],Kd [2] [nM],Substance
18,,"VE-cad(3) fragment (residues Phe210-Phe325), third domain of the extracellular portion of VE-cadherin (domain or fragment)"
,93,"dimeric (β15-66)2 fragment of fibrin β chain (full-length βN-domain, dimeric) (domain or fragment)"
